Source: PMC7723054
Some of the results follow.

T1: LIN28A (human?, UniProt Q9H9Z2 1-209)
T1 sequence: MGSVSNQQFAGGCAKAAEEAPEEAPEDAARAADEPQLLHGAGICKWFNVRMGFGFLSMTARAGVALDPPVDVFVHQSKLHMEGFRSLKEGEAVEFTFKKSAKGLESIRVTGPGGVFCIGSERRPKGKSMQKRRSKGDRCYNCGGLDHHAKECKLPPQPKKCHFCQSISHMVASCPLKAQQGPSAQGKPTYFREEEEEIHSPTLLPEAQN

T2: CIRBP (Homo sapiens, UniProt Q14011 1-172)
T2 sequence: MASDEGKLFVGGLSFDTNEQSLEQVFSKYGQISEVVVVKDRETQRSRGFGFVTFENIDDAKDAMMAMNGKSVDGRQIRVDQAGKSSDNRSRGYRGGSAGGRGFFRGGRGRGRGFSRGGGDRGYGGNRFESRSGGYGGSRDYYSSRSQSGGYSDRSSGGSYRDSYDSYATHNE

T3: DHX36 (Homo sapiens, UniProt Q9H2U1 1-1008)
T3 sequence: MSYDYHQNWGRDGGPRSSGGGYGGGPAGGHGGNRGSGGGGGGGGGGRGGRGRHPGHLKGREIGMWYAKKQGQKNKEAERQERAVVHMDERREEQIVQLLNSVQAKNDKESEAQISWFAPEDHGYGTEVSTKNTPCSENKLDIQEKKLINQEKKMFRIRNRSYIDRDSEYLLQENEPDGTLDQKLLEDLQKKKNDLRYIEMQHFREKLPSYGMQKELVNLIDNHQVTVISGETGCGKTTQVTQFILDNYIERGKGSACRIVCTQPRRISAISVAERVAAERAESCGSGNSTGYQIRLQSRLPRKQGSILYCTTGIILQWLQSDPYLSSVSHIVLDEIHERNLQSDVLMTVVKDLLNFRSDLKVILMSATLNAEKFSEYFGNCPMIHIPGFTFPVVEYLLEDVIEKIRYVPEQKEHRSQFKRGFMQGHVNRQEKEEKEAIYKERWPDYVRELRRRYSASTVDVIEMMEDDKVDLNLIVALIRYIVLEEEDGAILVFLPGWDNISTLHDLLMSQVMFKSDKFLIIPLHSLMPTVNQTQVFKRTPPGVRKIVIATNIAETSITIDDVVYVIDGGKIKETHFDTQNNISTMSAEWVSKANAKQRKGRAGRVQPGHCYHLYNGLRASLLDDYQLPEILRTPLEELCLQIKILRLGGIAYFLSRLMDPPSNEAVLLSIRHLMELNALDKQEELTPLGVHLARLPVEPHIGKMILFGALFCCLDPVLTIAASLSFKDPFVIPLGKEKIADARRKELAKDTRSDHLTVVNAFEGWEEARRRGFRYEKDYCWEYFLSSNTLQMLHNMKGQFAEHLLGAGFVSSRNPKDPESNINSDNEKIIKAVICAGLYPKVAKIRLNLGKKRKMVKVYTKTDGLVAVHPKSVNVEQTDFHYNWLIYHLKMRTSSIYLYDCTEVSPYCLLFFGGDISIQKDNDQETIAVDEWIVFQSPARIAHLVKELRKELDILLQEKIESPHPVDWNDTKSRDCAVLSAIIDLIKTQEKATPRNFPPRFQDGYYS

B1: hsa-mir-6715a (structured_RNA)
RNA: GGGACUGUUAGCGUUUAUUCACACUUGGGGUGUACGAAGUUUCAGCUGAGCAUUUUUACUGAAUUGCCAGCUGAAGCUUCGUGCAC
B2: hsa-mir-4529 (structured_RNA)
RNA: GGGAACGUGGUCUAUUACACAACGCCCGGGUGUACGAAGUUUCAGCCAAUGAAGACAUGAAGACCCAAUGUCUUCAUUGGCUGAAGCUUCGUGCAC
B3: hsa-mir-3160-2 (structured_RNA)
RNA: GGGAACAGUUUACGGGUCUUACGUCACAGGUGUACGAAGUUUCAGCCUCUCCUGACCAGCUGAGCUGGAGGAGAGGCUGAAGCUUCGUGCAC
B4: hsa-mir-3135b (structured_RNA)
RNA: GGGAGGUUAGAGGUGAAGGUUGCGGUAAGGUGUACGAAGUUUCAGCGGUGCAGUCAGUCCUAGCUCGCUGAAGCUUCGUGCAC
B5: hsa-mir-572 (structured_RNA)
RNA: GGGAGAAAGGCCUACGCGGUGAUCUACUGGUGUACGAAGUUUCAGCGGAAGGGCGCCUGUGCUUCGUCCGCUGAAGCUUCGUGCAC
B6: hsa-mir-5583-2 (structured_RNA)
RNA: GGGACAAGGACGGCAGAUAUAGAAUUGAGGUGUACGAAGUUUCAGCAUUCUGAUGAUCACCUAGCCAGAAUGCUGAAGCUUCGUGCAC
B7: hsa-mir-4424 (structured_RNA)
RNA: GGGAACAUCGGGCACAGCCUAAUACCCCGGUGUACGAAGUUUCAGCACUAAUUUUUCCACUAGUUAGUGCUGAAGCUUCGUGCAC
B8: hsa-mir-1-2 (structured_RNA)
RNA: GGGAGCCUGUUGGUGGGAUCUAAAAUCUGGUGUACGAAGUUUCAGCCCCAUAUGAACAUACAAUGCUAUGGAGCUGAAGCUUCGUGCAC
B9: hsa-mir-6833 (structured_RNA)
RNA: GGGAAGAGUGGCUUUGCCCGGAUAACUCGGUGUACGAAGUUUCAGCGAAAAAUCCCUGUUAACUUUCGCUGAAGCUUCGUGCAC
B10: hsa-mir-3656 (structured_RNA)
RNA: GGGAAUCACGUAAUAAAAGGUAGGGCGCGGUGUACGAAGUUUCAGCCGAGGUGGGCUAGGCUCGGGCCCGUGGCGGCUGAAGCUUCGUGCAC
B11: hsa-mir-4690 (structured_RNA)
RNA: GGGAAUCGAGGCUCACAAUUCCCUGGAAGGUGUACGAAGUUUCAGCCUGAACCCGUGGGUGAGGAGUGCAGGCUGAAGCUUCGUGCAC
B12: G4_(GGGU)8: (structured_RNA)
RNA: GGGAAAGACAAUAGCUUCCGUGGAGUAUGGUGUACGAAGUUUCAGCGGGUGGGUGGGUGGGUGGGUGGGUGGGUGGGUGCUGAAGCUUCGUGCAC

Target: U1A (Homo sapiens, UniProt P09012)
Test: FOREST: bead pull-down of RNA structure library v1, barcode microarray; U1A/LIN28A: 20 mM HEPES pH 7.5, 80 mM KCl, 20 mM NaCl, 10% glycerol, 2 mM DTT, 0.1 ug/uL BSA, 4 C; BG4/CIRBP/DHX36: 10 mM Tris-HCl pH 7.5, 100 mM KCl (or LiCl),; high values mean tight binding

Binder	binding signal [z-score]
B1	0.181
B2	0.187
B3	0.183
B4	0.187
B5	0.18
B6	0.187
B7	0.183
B8	0.186
B9	0.185
B10	0.182
B11	0.188
B12	1.84

Target: T1, LIN28A
Test: as above

Binder	binding signal [z-score]
B1	0.0952
B2	-0.719
B3	-0.534
B4	-0.603
B5	-0.0222
B6	0.543
B7	-0.739
B8	0.214
B9	-1.42
B10	1.63
B11	2.02
B12	0.459

Target: T2, CIRBP
Test: as above

Binder	binding signal [z-score]
B1	-0.641
B2	-0.774
B3	0.146
B4	-1.25
B5	-0.303
B6	0.657
B7	0.266
B8	0.0347
B9	-0.18
B10	0.724
B11	0.0304
B12	4.06

Target: T3, DHX36
Test: as above

Binder	binding signal [z-score]
B1	0.00994
B2	-0.412
B3	-0.109
B4	-0.697
B5	-0.893
B6	-0.443
B7	-0.294
B8	0.211
B9	-0.765
B10	0.262
B11	1.1
B12	7.55
